# According to patent US6900041B2 (dated 2005):
# Tests used:
# GSK-3β expression = test: RT-PCR of GSK-3β in endothelial cells; format: cell-based, human; conditions: endothelial cells (HMVEC); TNFα 10 ng/ml or AGE 100 μg/ml; 8 hours; vs control
# [1] = tested on: IL-6 production by endothelial cells; test: IL-6 ELISA of endothelial cell media; format: cell-based, human; conditions: endothelial cells transduced with control vector
substance,measurement,setting,value
AGE: Glycated HSA (AGE) from US Biologicals; advanced glycation end product,intensity of the 406 bp GSK-3β RT-PCR band,GSK-3β expression,decreased
same,induction of IL-6 expression,[1],7 fold
